# Results from US20210061908A1.
# Sequences of proteins named here, by UniProt entry; tags and fusion partners are left off. Residues count along the entry.
# UniProt P0C673, 23-240 limits assumed: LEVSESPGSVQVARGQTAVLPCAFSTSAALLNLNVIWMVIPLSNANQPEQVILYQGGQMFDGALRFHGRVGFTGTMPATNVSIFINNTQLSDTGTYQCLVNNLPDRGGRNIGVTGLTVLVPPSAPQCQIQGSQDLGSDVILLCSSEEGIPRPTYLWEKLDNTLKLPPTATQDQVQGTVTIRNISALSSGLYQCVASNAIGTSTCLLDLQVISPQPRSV
# UniProt Q5DX21, 23-241: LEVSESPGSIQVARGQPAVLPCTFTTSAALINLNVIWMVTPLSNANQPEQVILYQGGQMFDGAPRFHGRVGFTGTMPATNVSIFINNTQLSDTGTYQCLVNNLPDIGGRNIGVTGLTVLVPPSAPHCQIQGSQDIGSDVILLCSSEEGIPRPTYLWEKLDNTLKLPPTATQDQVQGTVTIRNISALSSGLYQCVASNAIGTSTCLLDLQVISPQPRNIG
# What was measured:
# [1] = target: extracellular domain (ECD) of murine IGSF11, biotinylated (mouse) (UniProt P0C673); assay: ELISA, scFv; RFU grade (*** >1.0, ** 0.5-1.0, * 0.1-0.5)
# [2] = target: extracellular domain (ECD) of human IGSF11 (VSIG3), biotinylated (human) (UniProt Q5DX21); assay: as above
substance,measurement,setting,value
A-018 (scFv format),"relative fluorescent units (RFU), ELISA",[1],0.5 to 1 rfu
same,"relative fluorescent units (RFU), ELISA",[2],0.5 to 1 rfu
